Laboratory results from patent US10300140B2, “Sur-binding proteins against ERBB3” (I2 PHARMACEUTICALS, INC., priority 2012, dated 2019).

Legend:
[1] = system: phosphorylation of ErbB3, AKT and ERK1/2 in SKBR3 cells; assay: Ligand-induced phosphorylation in SKBR3 cells; format: cell-based, human; details: 1 ng/ml NRG 12 minutes
Description: Ligand induced activation was measured by increased phosphorylation of ErbB3, AKT and ERK1/2. 500,000 SKBR3 cells were plated into wells of a 12 well tissue culture dish in serum free medium. The cells were incubated for 1 hour with the indicated amounts of SgG (see FIG. 29A, FIG. 29B, and FIG. 29C). They were then stimulated with 1 ng/ml NRG for 12 minutes. Cells were then washed in ice cold PBS, and lysed. Phosphorylated AKT, phosphorylated ErbB3 and phosphorylated ERK1/2 were measured in the lysates using ELISA kits from Cell Signaling Technologies®.

[2] = system: SKBR3 cells; assay: SKBR3 proliferation with anti-ErbB2 and anti-ErbB3 agents; format: cell-based, human; details: 1 ng/ml NRG, 3 days
From the text: The ability of sur-binding proteins to enhance the activity of trastuzumab and pertuzumab (anti-ErbB2 antibodies) was investigated in the ErbB2 overexpressing cell line SKBR3. ErbB2 overexpressing tumors were heterogeneous with respect to the amount of ligand in the tumor microenvironment. The anti-proliferative capacity of anti-ErbB2 and anti-ErbB3 agents in the absence (FIGS. 31 A, B, and C) and in the presence (FIGS. 31 D, E, and F) of NRG was examined.
Agents were applied to cells in complete medium and proliferation was determined after 6 days using Cell Titer-Glo® (Promega).
Agents were applied to cells in complete medium for 1 hour followed by stimulation with 1 ng/ml NRG. Proliferation was determined after 3 days using Cell Titer-Glo® (Promega).

Substance: Trastuzumab: marketed antibody that targets ErbB2 and binds to the juxtamembrane extracellular domain
- inhibition of ligand-induced phosphorylation of AKT, ErbB3 and ERK1/2 [1]: did not inhibit phosphorylation
- inhibition of growth, single agent, NRG stimulated [2]: did not appreciably inhibit growth
- inhibition of growth, single agent, NRG stimulated ([2]; listed as trastuzumab): little detectable activity as a single agent
